# Results: PubChem BioAssay AID720533 (National Center for Advancing Translational Sciences (NCATS), 2013)
# In all, about 18,000 compounds went through this assay and about 750 (4.2%) were called active. Listed are the inconclusive results; actives and inactives stand elsewhere. The call rests on the fitted dose curve; tested in HEK293 cells.
# Assay: qHTS for Inhibitors of binding or entry into cells for Lassa Virus
# Conditions: Lassa virus pseudotyped entry inhibition, cell-based qHTS
# Potency means the concentration at half of the fitted maximal effect.
row,SMILES,Potency
1,CN(C(=O)Cc1ccc(Cl)c(Cl)c1)[C@H]1CC[C@@]2(CCCO2)C[C@@H]1N1CCCC1,inconclusive: 14.1 µM
